## Ab-14 heavy chain CDR variants: yeast mating affinities

Values reported by Li et al. 2023, doi:10.1038/s41467-023-39022-2 (FLAb copy).

Target peptide (SARS-CoV-2 spike, HR2 region): PDVDLGDISGINAS

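The parent was found by panning a naive human phage display library on the peptide. This is the validation round: designs drawn from the data on random variants, tested in the same kind of assay. Their group label is 14H_En_Gibbs (En: ensemble of fine-tuned language models; Gibbs: Gibbs sampling). Affinity was read by AlphaSeq, a pooled yeast mating assay with surface-displayed partners. Binding brings cells together so that they mate, and sequencing counts the barcode pairs among the diploids. A regression on co-assayed BCL2-family reference pairs converts the normalised counts of each replicate to an apparent Kd. The assay was run in six technical replicates.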

The variants keep the light chain, the linker and the frameworks of Ab-14 (scFv order VH, a (GGGGS)3 linker, VL).
VH: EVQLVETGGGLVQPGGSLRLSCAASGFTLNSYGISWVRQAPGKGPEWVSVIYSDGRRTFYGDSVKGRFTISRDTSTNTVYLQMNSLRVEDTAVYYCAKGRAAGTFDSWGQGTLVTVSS
VL: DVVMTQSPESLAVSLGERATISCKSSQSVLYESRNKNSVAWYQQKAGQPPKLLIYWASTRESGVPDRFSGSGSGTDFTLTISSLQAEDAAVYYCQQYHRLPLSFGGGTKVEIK

The parent's heavy chain CDRs are GFTLNSYGIS, VIYSDGRRTFYGDSVK, GRAAGTFDS; each variant's own CDRs replace them letter for letter. Scale: log10 of Kd in nM, estimated from mating counts; low values are strong binders. The mean shown is taken over the replicates in which the pair was detected. An entry "n.d." has no value in the source: the pair was not observed among the diploids in that replicate. This suggests poor binding but is not conclusive. Nonspecific signal, from three strains lacking the peptide, appeared in 1% of pairings of all heavy chain designs, centred on 2.08 (5% of these signals below 0.84); values are not corrected for it. The control count says in how many pairings with the empty strains this scFv gave a signal, with their mean in brackets. A sequence measured in both rounds can read differently, since the two assays cover different ranges. The authors' rule: three or more of the six replicates give a measured affinity, fewer mean a poor binder.

CDR-H1 | CDR-H2 | CDR-H3 | log10 Kd (nM) by replicate | mean, log10 nM | control signals
GFNLDEYGIS | VIYADGMRRAYVDEVK | GSHSDVQLM | n.d. n.d. n.d. n.d. n.d. n.d. | n.d. | 0/18
GFDINEYGIS | VIYADGNRIAYQDQVK | GFNAGSFDI | 3.27 0.64 0.76 0.39 1.55 0.96 | 1.26 | 1/18 (2.67)
GFDINEYGIS | VIYADGIRTSYANKFK | GDSGGIINF | n.d. n.d. n.d. n.d. n.d. n.d. | n.d. | 0/18
GFDLDEYGIS | VIYADGTRSNYLDTVK | GHTGADFID | n.d. n.d. n.d. n.d. n.d. n.d. | n.d. | 1/18 (2.14)
GADLQEYGIS | VIYADGNRYAYANSVK | GTQAGSLIV | n.d. n.d. n.d. n.d. n.d. n.d. | n.d. | 1/18 (1.73)
GSDLNEYGIS | VIYADGHRVSYAENVK | GINMGGIAI | n.d. n.d. n.d. n.d. n.d. n.d. | n.d. | 0/18
GFSLEEYGIS | VIYADGSRTSYQESVK | GLYIGMLDV | n.d. n.d. n.d. n.d. n.d. n.d. | n.d. | 0/18
GFNLDEYGIS | VIYADGMRAAYQNSVK | GFTPFVVAI | n.d. n.d. n.d. n.d. n.d. n.d. | n.d. | 0/18
GFSINEYGIS | VIYADGNRSAYIDAVK | GDSGSSFLE | n.d. n.d. n.d. n.d. n.d. n.d. | n.d. | 0/18
GFDLEEYGIS | VIYADGMRAAYANNVK | GVKGINVTI | n.d. n.d. n.d. n.d. n.d. n.d. | n.d. | 1/18 (2.16)
GKSLDEYGIS | VIYADGKRTAYADSVK | NSVMSGRVT | n.d. n.d. n.d. n.d. n.d. n.d. | n.d. | 0/18
GFNINEYGVS | VIYADGMRTYYDDKVK | GSNGVMLLD | n.d. n.d. n.d. n.d. n.d. n.d. | n.d. | 0/18
GYDLVEYGIS | VIYADGQRTAYADTVK | GHHGGIFFM | n.d. n.d. n.d. n.d. n.d. n.d. | n.d. | 0/18
GFDIDEMGIS | VIYADGQRKAYTENVK | GNSMGMTVA | n.d. n.d. n.d. n.d. n.d. n.d. | n.d. | 0/18
GFGLDEYGIS | VIYADGMRANYATSVK | GYQAGVIST | n.d. n.d. n.d. n.d. n.d. n.d. | n.d. | 0/18
GFDLNEYGIS | VIYADGHRQQYSNNVK | GGQAGIGLS | n.d. n.d. n.d. n.d. n.d. n.d. | n.d. | 0/18
GSKLDEYGIS | VIYADGKRTFYSNAVK | GIKAGGTTV | n.d. n.d. n.d. n.d. n.d. n.d. | n.d. | 0/18
GFDLEEWGIS | VIYADGKRTAYADNVK | GMSGADLMF | n.d. n.d. n.d. n.d. n.d. n.d. | n.d. | 0/18
GFDLGEYGIS | VIYADGHRRAYSDNVK | GAHSGSVQT | n.d. n.d. n.d. n.d. n.d. n.d. | n.d. | 1/18 (2.32)
GPSIDEYGIS | VIYADGIRESYNDNVK | GNTGGAFDV | n.d. n.d. n.d. n.d. n.d. n.d. | n.d. | 0/18
GFSLGEYGIS | VIYADGMRSAYTDDVK | GAGANIITH | -0.12 -0.44 -1.20 0.72 -0.43 -0.52 | -0.33 | 0/18
GKDIDEYGIS | VIYADGIRTAYNDRVK | GNLGIQFDM | n.d. n.d. n.d. n.d. n.d. n.d. | n.d. | 0/18
GFDVNEYGIS | VIYADGRRTQYTQDVK | GKNNMVLYV | 0.15 1.01 0.10 -0.06 0.18 0.24 | 0.27 | 1/18 (1.82)
GFDLQEYGIS | VIYADGMRVGYTDSVK | GTQGISNIE | n.d. n.d. n.d. n.d. n.d. n.d. | n.d. | 1/18 (2.60)
GFDLNEYGIS | VIYADGHRTKYSNNVK | GGQAGIALS | n.d. n.d. n.d. n.d. n.d. n.d. | n.d. | 0/18
GFDLGEYGIS | VIYADGRRKAYSDAVK | GINVIGKTV | n.d. n.d. n.d. n.d. n.d. n.d. | n.d. | 0/18
GYSLEEYGIS | VIYADGRRTAYADNVK | GMSGNFGMF | n.d. n.d. n.d. n.d. n.d. n.d. | n.d. | 0/18
GFNLDEYGIS | VIYADGIRSHYVDDVK | GKHGGGKLD | n.d. n.d. n.d. n.d. n.d. n.d. | n.d. | 1/18 (3.38)
GFNISEYGIS | VIYADGRRTAYKDTVK | GNLTWLFDV | n.d. n.d. n.d. n.d. n.d. n.d. | n.d. | 0/18
GFKLDEYGIS | VIYADGHRVAVSDKVK | GDNVGAFFV | n.d. n.d. n.d. n.d. n.d. n.d. | n.d. | 0/18
GSNLDEYGIS | VIYADGMRQAYIEDVK | GQSGVSVFN | n.d. n.d. n.d. n.d. n.d. n.d. | n.d. | 0/18
GNTLDEYGIS | VIYADGVRMAYINKFK | GMDTGTFDQ | n.d. n.d. n.d. n.d. n.d. n.d. | n.d. | 0/18
GKDLQEYGIS | VIYADGARTAYSNSVK | GTQDISLIV | n.d. n.d. n.d. 1.80 n.d. n.d. | 1.80 | 0/18
GFNIDEYGVS | VIYADGRRQYYADKVK | GHNLVMALV | n.d. n.d. n.d. n.d. n.d. n.d. | n.d. | 0/18
GFDLNEYGIS | VIYADGTRTYYANSFK | GDYKVVNSI | n.d. n.d. n.d. n.d. n.d. n.d. | n.d. | 0/18